Sequences of proteins named here, by UniProt entry; tags and fusion partners are left off. A change or cut given only in a name is not applied to a line headed by its entry.
UniProt Q07343: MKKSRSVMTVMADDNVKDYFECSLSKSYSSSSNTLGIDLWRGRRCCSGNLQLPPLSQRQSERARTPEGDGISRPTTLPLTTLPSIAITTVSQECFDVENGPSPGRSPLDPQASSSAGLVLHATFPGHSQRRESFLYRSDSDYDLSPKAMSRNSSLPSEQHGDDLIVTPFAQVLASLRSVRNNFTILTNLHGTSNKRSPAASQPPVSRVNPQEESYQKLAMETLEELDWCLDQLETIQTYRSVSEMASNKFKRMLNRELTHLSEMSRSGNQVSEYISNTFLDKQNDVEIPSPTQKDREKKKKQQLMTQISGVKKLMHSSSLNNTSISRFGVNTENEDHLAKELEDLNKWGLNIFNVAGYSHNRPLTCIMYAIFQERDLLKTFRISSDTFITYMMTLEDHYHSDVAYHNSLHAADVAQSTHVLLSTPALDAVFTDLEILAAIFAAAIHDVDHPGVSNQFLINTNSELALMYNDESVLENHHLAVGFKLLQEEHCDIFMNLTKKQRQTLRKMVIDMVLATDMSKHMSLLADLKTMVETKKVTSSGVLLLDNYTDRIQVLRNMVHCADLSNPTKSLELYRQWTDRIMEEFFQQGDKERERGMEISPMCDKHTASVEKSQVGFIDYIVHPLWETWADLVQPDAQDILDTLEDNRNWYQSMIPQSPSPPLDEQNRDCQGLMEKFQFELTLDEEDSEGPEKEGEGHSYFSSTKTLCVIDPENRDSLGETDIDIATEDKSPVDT

According to ChEMBL document CHEMBL3862036, “Biphenyl Pyridazinone Derivatives as Inhaled PDE4 Inhibitors: Structural Biology and Structure-Activity Relationships” (J Med Chem, 2016):

Assays:
[1] = biological target: 3',5'-cyclic-AMP phosphodiesterase 4B (Homo sapiens, UniProt Q07343); experiment: Inhibition of human recombinant PDE4B1 assessed as reduction in [3H]cAMP hydrolysis to [3H]AMP incubated for 60 mins by PDE-SPA assay
How it was run: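 Compounds were run from 10 μM to 10 pM in 5% final DMSO. Incubation was 60 min at room temperature with agitation (~10–20% conversion), then stopped with PDE SPA beads. [3H]AMP was counted by scintillation. Duplicates; IC50 calculated.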

[2] = Selectivity index, ratio of IC50 for adenosine A1/A2a/A2b receptor (unknown origin) to IC50 for inhibition of PDE4 in PBMC (unknown origin) assessed as reduction in LPS-induced TNFalpha production; design: species or system Homo sapiens
[3] = Inhibition of PDE4 in PBMC (unknown origin) assessed as reduction in LPS-induced TNFalpha production incubated for 24 hrs by ELISA; conditions: Homo sapiens

SMILES | IC50 [1] [nM] | IC50 [3] [nM] | Ratio IC50 [2]
CCn1nc(-c2cccc(-c3ccc(O)cc3)c2)cc(NC(=O)Nc2c(Cl)cncc2Cl)c1=O | 0.06 |  | 
CCn1nc(-c2cccc(-c3ccc(CC(=O)O)cc3)c2)cc(NC(=O)Nc2c(Cl)cncc2Cl)c1=O | 0.05 |  | 
CCn1nc(-c2cccc(-c3cccc(CC(=O)NCCCCCCCN(C)CCO)c3)c2)cc(NC(=O)Nc2c(Cl)cncc2Cl)c1=O | 0.05 |  | 
CCn1nc(-c2cccc(Br)c2)cc(NC(=O)Nc2c(Cl)cncc2Cl)c1=O | 1.7 |  | 
CCn1nc(-c2cccc(-c3cncc(O)c3)c2)cc(NC(=O)Nc2c(Cl)cncc2Cl)c1=O | 0.085 |  | 
CCn1nc(-c2cccc(-c3ccccc3C(=O)O)c2)cc(NC(=O)Nc2c(Cl)cncc2Cl)c1=O | 4.83 |  | 
CCn1nc(-c2cccc(-c3cc(C(=O)NCCCN(C)C)cc(C(=O)OC)c3)c2)cc(NC(=O)Nc2c(Cl)cncc2Cl)c1=O | 0.03 |  | >1000
CCn1nc(-c2cccc(-c3ccc(O)c(F)c3)c2)cc(NC(=O)Nc2c(Cl)cncc2Cl)c1=O | 0.06 |  | 
CCn1nc(-c2cccc(-c3ccc(C(N)=O)cc3)c2)cc(NC(=O)Nc2c(Cl)cncc2Cl)c1=O | 0.11 |  | 
CCn1nc(-c2cccc(-c3cc(C(=O)O)ccc3F)c2)cc(NC(=O)Nc2c(Cl)cncc2Cl)c1=O | 0.08 |  | 
CCn1nc(-c2cccc(-c3cncc(C(=O)O)c3)c2)cc(NC(=O)Nc2c(Cl)cncc2Cl)c1=O | 0.14 |  | 
CCNC(=O)c1cc(C(=O)NCCCN(C)C)cc(-c2cccc(-c3cc(NC(=O)Nc4c(Cl)cncc4Cl)c(=O)n(CC)n3)c2)c1 | 0.05 |  | >1000
CCOc1cc(C(=O)NC2CC2)cc(-c2cccc(-c3cc(NC(=O)Nc4c(Cl)cncc4Cl)c(=O)n(CC)n3)c2)c1 | 0.31 |  | 245
CCn1nc(-c2cccc(-c3cc(F)ccc3O)c2)cc(NC(=O)Nc2c(Cl)cncc2Cl)c1=O | 0.24 |  | 
CCn1nc(-c2cccc(-c3ccc(CC(=O)NCCCCCCCN(C)CCO)cc3)c2)cc(NC(=O)Nc2c(Cl)cncc2Cl)c1=O | 0.03 |  | 
CCn1nc(-c2cccc(-c3ccc(O)nc3)c2)cc(NC(=O)Nc2c(Cl)cncc2Cl)c1=O | 0.38 |  | 
CCn1nc(-c2cccc(-c3ccccc3O)c2)cc(NC(=O)Nc2c(Cl)cncc2Cl)c1=O | 0.35 |  | 
CCn1nc(-c2cccc(-c3cccc(O)c3F)c2)cc(NC(=O)Nc2c(Cl)cncc2Cl)c1=O | 0.6 |  | 
CCn1nc(-c2cccc(-c3ccc(O)cc3F)c2)cc(NC(=O)Nc2c(Cl)cncc2Cl)c1=O | 0.04 |  | 
CCn1nc(-c2cccc(-c3cc(C(=O)NC4CC4)cc(C(=O)NC4CC4)c3)c2)cc(NC(=O)Nc2c(Cl)cncc2Cl)c1=O | 0.21 |  | 810
CCn1nc(-c2cccc(-c3ccc(F)cc3O)c2)cc(NC(=O)Nc2c(Cl)cncc2Cl)c1=O | 0.7 |  | 
CCn1nc(-c2cccc(-c3cc(C#N)cc(C(=O)NC4CC4)c3)c2)cc(NC(=O)Nc2c(Cl)cncc2Cl)c1=O | 0.37 |  | >1000

More lines, main results first:

IC50 [1] [nM] | IC50 [3] [nM] | SMILES | Ratio IC50 [2]
0.15 |  | CCn1nc(-c2cccc(-c3cc(OCC4CC4)cc(C(=O)NCCN4CCCCC4)c3)c2)cc(NC(=O)Nc2c(Cl)cncc2Cl)c1=O | 92
0.05 |  | CCn1nc(-c2cccc(-c3ccc(CC(=O)NCCN4CCCCC4)cc3)c2)cc(NC(=O)Nc2c(Cl)cncc2Cl)c1=O | 
0.16 |  | CCn1nc(-c2cccc(-c3ccc(F)c(C(=O)O)c3)c2)cc(NC(=O)Nc2c(Cl)cncc2Cl)c1=O | 
0.38 |  | CCn1nc(-c2cccc(-c3cccc(C(=O)NCCN4CCNCC4)c3)c2)cc(NC(=O)Nc2c(Cl)cncc2Cl)c1=O | 
0.05 |  | CCn1nc(-c2cccc(-c3cccc(C(=O)NCCC4CCCN4C)c3)c2)cc(NC(=O)Nc2c(Cl)cncc2Cl)c1=O (configuration not stated) | 
0.03 |  | CCn1nc(-c2cccc(-c3cc(C(=O)NCCO)cc(C(=O)NCCN4CCCCC4)c3)c2)cc(NC(=O)Nc2c(Cl)cncc2Cl)c1=O | >865
0.06 |  | CCn1nc(-c2cccc(-c3cc(C(=O)NCCN4CCCCC4)cc(C(=O)NC4CC4)c3)c2)cc(NC(=O)Nc2c(Cl)cncc2Cl)c1=O | 271
0.13 |  | CCn1nc(-c2cccc(-c3cccc(C(=O)NCCN4CCCCC4)c3)c2)cc(NC(=O)Nc2c(Cl)cncc2Cl)c1=O | 
0.05 |  | CCn1nc(-c2cccc(-c3cc(C(=O)NCC[C@H]4CCCN4C)cc(C(=O)NC4CC4)c3)c2)cc(NC(=O)Nc2c(Cl)cncc2Cl)c1=O | 486
0.04 |  | CCn1nc(-c2cccc(-c3cccc(CC(=O)O)c3)c2)cc(NC(=O)Nc2c(Cl)cncc2Cl)c1=O | 
0.03 |  | CCn1nc(-c2cccc(-c3cccc(C(=O)NC4CC4)c3)c2)cc(NC(=O)Nc2c(Cl)cncc2Cl)c1=O | 
0.09 | 0.09 | CCn1nc(-c2cccc(-c3cc(C(=O)NCCN4CCOCC4)cc(C(=O)NC4CC4)c3)c2)cc(NC(=O)Nc2c(Cl)cncc2Cl)c1=O | >1000
0.05 |  | CCn1nc(-c2cccc(-c3cccc(C(N)=O)c3)c2)cc(NC(=O)Nc2c(Cl)cncc2Cl)c1=O | 
0.07 |  | CCn1nc(-c2cccc(-c3cccc(C(=O)O)c3)c2)cc(NC(=O)Nc2c(Cl)cncc2Cl)c1=O | 
0.03 |  | CCn1nc(-c2cccc(-c3cccc(C(=O)NCCCCCCCN(C)CCO)c3)c2)cc(NC(=O)Nc2c(Cl)cncc2Cl)c1=O | 
0.35 |  | CCn1nc(-c2cccc(-c3cccc(O)c3)c2)cc(NC(=O)Nc2c(Cl)cncc2Cl)c1=O | 
0.05 |  | CCn1nc(-c2cccc(-c3cccc(C(=O)NCCN(C)C)c3)c2)cc(NC(=O)Nc2c(Cl)cncc2Cl)c1=O | 
0.08 |  | CCn1nc(-c2cccc(-c3ccc(C(=O)O)cc3)c2)cc(NC(=O)Nc2c(Cl)cncc2Cl)c1=O | 
0.014 |  | CCn1nc(-c2cccc(-c3cccc(C(=O)NCCN4CCOCC4)c3)c2)cc(NC(=O)Nc2c(Cl)cncc2Cl)c1=O | 
